One experiment has as its target Mu-type opioid receptor (Homo sapiens, UniProt P35372). Description: Displacement of [3H]-naloxone human mu-opioid receptor expressed in CHO-K1 cell membranes measured after 90 mins by beta-counter method. Background: In a radioligand displacement assay an active substance lowers the binding of a labelled ligand.
The test system of a further experiment is Rattus norvegicus. Put plainly: Analgesic activity in iv dosed Sprague-Dawley rat assessed as increase in pain latency measured up to 60 mins by tail-flick assay.
In another experiment the target is Nociceptin receptor (Homo sapiens, UniProt P41146). Put plainly: Displacement of [3H]-nociceptin/orphanin FQ from recombinant ORL1 receptor (unknown origin) expressed in CHO cell membranes measured after 1 hr by scintillation counter method.

The chains behind the UniProt entries cited, without tags or fusion partners. Where a name states a change or a piece, a line headed by the entry shows the natural chain unless it says otherwise.
UniProt P35372, whole entry, looked up: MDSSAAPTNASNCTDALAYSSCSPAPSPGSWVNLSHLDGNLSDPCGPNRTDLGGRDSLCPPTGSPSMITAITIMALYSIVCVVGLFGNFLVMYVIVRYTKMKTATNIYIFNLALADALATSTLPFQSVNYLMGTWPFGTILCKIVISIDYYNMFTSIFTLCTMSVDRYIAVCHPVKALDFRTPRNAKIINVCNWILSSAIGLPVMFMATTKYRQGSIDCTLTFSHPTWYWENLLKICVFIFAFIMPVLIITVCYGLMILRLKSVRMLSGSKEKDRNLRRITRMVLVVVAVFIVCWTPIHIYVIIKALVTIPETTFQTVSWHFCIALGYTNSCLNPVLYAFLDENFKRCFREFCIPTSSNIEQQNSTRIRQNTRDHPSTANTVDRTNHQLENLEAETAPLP
UniProt P41146: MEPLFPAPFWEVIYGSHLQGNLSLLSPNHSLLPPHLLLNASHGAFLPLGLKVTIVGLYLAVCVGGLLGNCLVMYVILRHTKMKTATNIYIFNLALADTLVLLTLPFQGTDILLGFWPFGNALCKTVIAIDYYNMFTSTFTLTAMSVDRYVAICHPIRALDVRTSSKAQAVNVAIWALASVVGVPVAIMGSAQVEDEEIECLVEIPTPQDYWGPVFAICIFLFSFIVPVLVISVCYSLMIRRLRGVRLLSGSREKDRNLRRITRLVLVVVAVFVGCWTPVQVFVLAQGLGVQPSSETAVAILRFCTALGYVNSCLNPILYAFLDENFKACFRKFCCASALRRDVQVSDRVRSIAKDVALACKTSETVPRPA

The structures appear in SMILES notation.

A word on the Ki: it is the equilibrium dissociation constant of an inhibitor or competing ligand from its target. For orientation: ED50 means the dose at which the effect has come halfway, by size or by number of responders.

In the case of `CN(C)C1(c2ccccc2)CCC2(CCN(CCC3(C#N)CCC3)C2)CC1` (stereo not given), the Ki on Mu-type opioid receptor is 3.5 nM.

With `CCCCN1CCC2(CCC(c3cccs3)(N(C)C)CC2)C1` (stereo not given), the ED50 in the experiment with Rattus norvegicus was 0.414 mg/kg.

Regarding `CN(C)C1(c2ccccc2)CCC2(CCN(C(=O)CC3(C#N)CCC3)C2)CC1` (stereo not given), the Ki at Mu-type opioid receptor came out at 1 nM; on Nociceptin receptor, 0.7 nM. In addition, in the experiment on Rattus norvegicus, the ED50 came to 0.0152 mg/kg.

For the compound `Cc1ccsc1C1(N(C)C)CCC2(CCN(C(=O)CC(C)C)C2)CC1` (stereo not given), the Ki was 4.8 nM at Mu-type opioid receptor and 27 nM on Nociceptin receptor.

On to `CN(C)C1(c2ccccc2)CCC2(CC1)CC(=O)N(CCC1(C#N)CCC1)C2` (stereo not given), for which the Ki was 1.2 nM on Mu-type opioid receptor and 1.6 nM on Nociceptin receptor.

For the compound `CCCC(=O)N1CCC2(CCC(c3ccccc3)(N(C)C)CC2)C1` (stereo not given), in the experiment on Rattus norvegicus, the ED50 stood at 0.157 mg/kg.

For `CN(C)C1(C2CCCC2)CCC2(CCN(C(=O)CC3CC3)C2)CC1` (stereo not given), on Mu-type opioid receptor, the Ki turned out to be 4 nM. Besides, in the experiment on Rattus norvegicus, the ED50 came out at 0.00543 mg/kg.

In the case of `CCCC(=O)N1CCC2(CCC(c3sccc3C)(N(C)C)CC2)C1` (stereo not given), the Ki on Mu-type opioid receptor is 7.6 nM; at Nociceptin receptor, 15.5 nM. In the experiment on Rattus norvegicus, the ED50 was 0.00654 mg/kg.

These data come from ChEMBL document CHEMBL4431392, “Treatment of Pain with Spirocylic Cyclohexane Derivatives Having Dual Specificity for ORL-1 and μ-Opioid Receptors” (2016).
